# scFv variants of Ab-95 (light chain) against a SARS-CoV-2 spike peptide

The target is the same throughout: PDVDLGDISGINAS, from the HR2 region of SARS-CoV-2 spike.

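Phage display of a naive human antibody library on the peptide gave the parent. In library AAYL52, one, two or three CDR residues were substituted; doubles and triples were drawn at random. The scFvs were displayed on barcoded MATa yeast, the peptide on MATalpha yeast. Binding brings cells together so that they mate, and sequencing counts the barcode pairs among the diploids. Read counts were normalised to the haploid input and turned into Kd by a linear fit to BCL2-family pairs of known affinity, for each replicate. Each pool was mated in three replicate cultures.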

Parent scFv Ab-95: VH joined to VL by a 15-residue (Gly4Ser)3 linker. Changes lie in the light chain CDRs alone.
VH: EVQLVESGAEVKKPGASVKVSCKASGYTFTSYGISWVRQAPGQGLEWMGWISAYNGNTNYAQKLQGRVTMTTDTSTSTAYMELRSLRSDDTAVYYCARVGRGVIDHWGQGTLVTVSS
VL: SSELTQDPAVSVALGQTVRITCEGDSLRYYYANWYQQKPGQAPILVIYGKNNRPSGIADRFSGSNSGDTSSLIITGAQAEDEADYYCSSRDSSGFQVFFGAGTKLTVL

Each variant's VL is given in full.
Affinities are written as log10 Kd with Kd in nM; a lower number is a better binder.
Averages over replicates are reported, and they cover detected replicates only.
An entry "ND" has no value in the source: the pair was not observed among the diploids in that replicate. This suggests poor binding but is not conclusive.

VL,"replicates, log10 nM","log10 Kd (nM), mean",signal with controls
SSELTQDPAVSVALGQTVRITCEGDSLRYKYANWYQQKPGQAPILVIYGTNNRPSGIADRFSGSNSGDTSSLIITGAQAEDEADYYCSSRDSSGFGVFFGAGTKLTVL,3.13 2.66 3.48,3.09,1/9 (2.69)
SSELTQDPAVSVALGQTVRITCEGDSLRYYYANWYQQKPGQAPILVIYGKNYRPFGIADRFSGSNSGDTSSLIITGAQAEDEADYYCSSRDSSGFFVFFGAGTKLTVL,ND ND ND,ND,1/9 (4.17)
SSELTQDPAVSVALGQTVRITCEGDSLVYYYANWYQQKPGQAPILVIYGKNNRPSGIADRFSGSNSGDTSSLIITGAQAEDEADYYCSSRDWNGFQVFFGAGTKLTVL,5.31 ND ND,5.31,1/9 (3.97)
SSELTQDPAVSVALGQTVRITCEGDSLRYYSANWYQQKPGQAPILVIYGKNKRPSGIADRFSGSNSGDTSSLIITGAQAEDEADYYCSSRDSSGFQVFFGAGTKLTVL,2.47 2.46 2.40,2.45,7/9 (3.88)
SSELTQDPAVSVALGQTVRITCEGDSLRNYYANWYQQKPGQAPILVIYGKNNRPSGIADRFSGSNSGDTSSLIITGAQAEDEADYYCKSRDSSGFQVFFGAGTKLTVL,1.68 1.60 1.09,1.46,3/9 (4.34)
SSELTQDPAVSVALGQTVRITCEGDALRYYMANWYQQKPGQAPILVIYGKNNRPSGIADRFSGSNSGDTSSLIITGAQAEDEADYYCSSRDSSGFGVFFGAGTKLTVL,1.81 1.87 1.85,1.84,5/9 (4.03)
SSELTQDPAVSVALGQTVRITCEGDSLRYYYANWYQQKPGQAPILVIYEKNNRPSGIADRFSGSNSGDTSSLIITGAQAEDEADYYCSSRDSSGFFVKFGAGTKLTVL,3.36 4.56 3.23,3.72,3/9 (3.53)
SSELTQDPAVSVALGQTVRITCEGHSLRYYYANWYQQKPGQAPILVIYGKNNRPSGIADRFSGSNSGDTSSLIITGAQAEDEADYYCSSRDSSGFWVFFGAGTKLTVL,2.85 2.84 3.93,3.21,2/9 (3.23)
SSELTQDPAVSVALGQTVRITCEGDSLRYYYACWYQQKPGQAPILVIYGKNNRPSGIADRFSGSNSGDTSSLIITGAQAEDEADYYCSCRDSSGFQWFFGAGTKLTVL,4.51 ND 3.29,3.90,2/9 (4.34)
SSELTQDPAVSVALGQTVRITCEGDKLMYYYANWYQQKPGQAPILVIYGKNNRYSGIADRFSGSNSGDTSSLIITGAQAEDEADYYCSSRDSSGFQVFFGAGTKLTVL,4.33 3.03 3.13,3.50,4/9 (3.99)
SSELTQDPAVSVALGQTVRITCEGDSLRYHYKNWYQQKPGQAPILVIYMKNNRPSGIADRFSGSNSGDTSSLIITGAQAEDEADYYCSSRDSSGFQVFFGAGTKLTVL,ND ND 3.35,3.35,1/9 (4.51)
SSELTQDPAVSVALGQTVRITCEGPSLRYYYANWYQQKPGQAPILVIYGKNNRPSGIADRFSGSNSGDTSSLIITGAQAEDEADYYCSSRDSLQFQVFFGAGTKLTVL,3.45 3.17 3.22,3.28,3/9 (4.38)
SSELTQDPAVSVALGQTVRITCEGDSWRYYPANWYQQKPGQAPILVIYGQNNRPSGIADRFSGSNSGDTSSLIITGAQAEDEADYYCSSRDSSGFQVFFGAGTKLTVL,1.81 1.64 1.56,1.67,3/9 (3.25)
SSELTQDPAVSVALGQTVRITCEVDSLRYIYAYWYQQKPGQAPILVIYGKNNRPSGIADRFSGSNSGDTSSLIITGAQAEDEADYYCSSRDSSGFQVFFGAGTKLTVL,3.33 4.14 3.97,3.81,5/9 (4.00)
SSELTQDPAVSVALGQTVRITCMGDSLRYYYANWYQQKPGQAPILVIYGKNNRPSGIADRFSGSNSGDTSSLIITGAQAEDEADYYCSSRDESGFQVFFGAGTKLTVL,1.63 1.55 1.59,1.59,3/9 (4.07)
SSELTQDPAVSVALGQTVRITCEGDQLRYYYANWYQQKPGQAPILVIYGKNNRPSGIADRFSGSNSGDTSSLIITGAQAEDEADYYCSSRDSKGFQMFFGAGTKLTVL,ND 4.20 2.49,3.34,2/9 (4.18)
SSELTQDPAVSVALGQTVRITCEGDSLRYYYQNWYQQKPGQAPILVIYGKNNRPSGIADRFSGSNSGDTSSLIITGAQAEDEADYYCAERDSSGFQVFFGAGTKLTVL,ND ND ND,ND,1/9 (4.49)
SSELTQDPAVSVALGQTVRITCHGDSTRYYYANWYQQKPGQAPILVIYGMNNRPSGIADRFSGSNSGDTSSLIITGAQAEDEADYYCSSRDSSGFQVFFGAGTKLTVL,ND ND ND,ND,2/9 (4.17)
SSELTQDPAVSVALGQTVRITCEGDSLRYYYAWWYQQKPGQAPILVIYGKNNRPSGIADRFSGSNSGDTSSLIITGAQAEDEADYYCSSRDSRGFQVHFGAGTKLTVL,ND ND 3.95,3.95,2/9 (4.44)
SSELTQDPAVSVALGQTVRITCEGDSLRQYYANWYQQKPGQAPILVIYGDNNRPSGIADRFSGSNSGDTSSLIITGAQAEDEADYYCSNRDSSGFQVFFGAGTKLTVL,2.24 2.34 2.04,2.21,4/9 (4.31)
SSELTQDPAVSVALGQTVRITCEGDSLRYYYANWYQQKPGQAPILVIYEKNNRPSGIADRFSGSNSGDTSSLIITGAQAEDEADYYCSSIDSSGFQVFFGAGTKLTVL,4.37 ND ND,4.37,0/9
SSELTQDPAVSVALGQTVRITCEGDLLRYYYANWYQQKPGQAPILVIYGKENRPSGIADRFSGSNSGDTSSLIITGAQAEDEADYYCSSRDSGGFQVFFGAGTKLTVL,4.65 3.52 ND,4.09,2/9 (3.57)
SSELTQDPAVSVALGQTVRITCEGDSLRYYYHNWYQQKPGQAPILVIYGKNNRHSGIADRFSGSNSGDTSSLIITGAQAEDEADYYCSSRDSSGMQVFFGAGTKLTVL,ND 5.32 ND,5.32,3/9 (3.23)
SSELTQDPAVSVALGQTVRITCMGDSLRYYYANWYQQKPGQAPILVIYGKNNRPSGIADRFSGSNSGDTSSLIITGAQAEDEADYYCSSRDSSGFQIFFGAGTKLTVL,3.12 2.45 2.20,2.59,3/9 (3.72)

The opening 3 entries, copied out:

VL	replicates, log10 nM	log10 Kd (nM), mean	signal with controls
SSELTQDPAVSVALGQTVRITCEGDSLRYKYANWYQQKPGQAPILVIYGTNNRPSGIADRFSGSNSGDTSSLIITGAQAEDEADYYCSSRDSSGFGVFFGAGTKLTVL	3.13 2.66 3.48	3.09	1/9 (2.69)
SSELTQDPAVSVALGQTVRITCEGDSLRYYYANWYQQKPGQAPILVIYGKNYRPFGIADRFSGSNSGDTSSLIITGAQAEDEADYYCSSRDSSGFFVFFGAGTKLTVL	ND ND ND	ND	1/9 (4.17)
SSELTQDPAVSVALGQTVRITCEGDSLVYYYANWYQQKPGQAPILVIYGKNNRPSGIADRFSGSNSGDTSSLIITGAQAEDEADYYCSSRDWNGFQVFFGAGTKLTVL	5.31 ND ND	5.31	1/9 (3.97)

Background: pairings of library AAYL52 with three empty control strains gave a value in 28% of cases (median 3.91, 5th percentile 2.90). Values in that range, when seen in few replicates, are hard to tell from nonspecific mating. For each scFv, signals with the empty controls are counted beside the result, with their mean in brackets.
Parent in this assay: reference entry 2.31, copy in this library 2.25.

Values reported by Engelhart et al. 2022, doi:10.1038/s41597-022-01779-4 (FLAb copy).